Data on 1 molecule can be found in US20210309732A1 (ELIXIRON IMMUNOTHERAPEUTICS HONG KONG, published 2021).

By UniProt entry, the sequences of proteins in these tests, tags left out. Residues count along the entry.
UniProt P04141, 18-144 limits assumed: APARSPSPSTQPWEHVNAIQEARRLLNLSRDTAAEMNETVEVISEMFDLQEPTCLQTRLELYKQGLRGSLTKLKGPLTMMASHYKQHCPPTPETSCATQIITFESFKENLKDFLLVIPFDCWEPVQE

This assay concerns the target T1, recombinant human GM-CSF (human, UniProt P04141 18-144).
T1 construct: also called rhGM-CSF; CSF2
Kind of assay: SPR Biacore 3000, antibody captured by goat anti-human IgG, rhGM-CSF injected. The procedure:
The kinetic binding analysis of anti-GM-CSF antibodies to recombinant human GM-CSF (rhGM-CSF) was determined by Surface plasmon resonance (SPR) using the Biacore 3000 instrument (GE Healthcare). Goat anti-human IgG (5 μg/mL) (SouthernBiotech) was stabilized in […] acetate buffer, pH 4.5, and immobilized on an EDC/NHS pre-activated carboxymethylated dextran 5 (CMS) sensor chip (GE Healthcare) through amine coupling kit (GE Healthcare). HBS-EP buffer (HBS; 10 […], 0.005% surfactant Tween-20, pH 7.4) (GE Healthcare) was used as running buffer. 1D2, AMG203 and MOR103 were respectively captured on the CMS sensor chip by goat anti-human IgG. CMS sensor chip coated only with goat anti-human IgG was used as reference chip. rhGM-CSF (Biolegend) was injected over the mAb-coated CMS sensor chip and reference chip at different concentrations. The flow rate was 30 μl/min. […] Injection time and dissociation time were 180 and 600 seconds. Data were fitted to a 1:1 model using the Biacore 3000 evaluation software. […] Antibody-binding kinetic rate constants (Ka and Kd), as well as the equilibrium dissociation constant (KD=Kd/Ka), are shown in Table 4. The 1D2 antibody has a lower KD value than that of AMG203 and MOR103, indicating 1D2 antibody has higher affinity to rhGM-CSF compared to AMG203 and MOR103.

B1: MOR103 (otilimab) (antibody, V domains shown)
VH: QVQLVESGGGLVQPGGSLRLSCAASGFTFSSYWMNWVRQAPGKGLEWVSGIENKYAGGATYYAASVKGRFTISRDNSKNTLYLQMNSLRAEDTAVYYCARGFGTDFWGQGTLVTVSS
VL: DIELTQPPSVSVAPGQTARISCSGDSIGKKYAYWYQQKPGQAPVLVIYKKRPSGIPERFSGSNSGNTATLTISGTQAEDEADYYCSAWGDKGMVFGGGTKLTVL
Take B1: the Kd was 0.366 nM, the koff stood at 6.19e-05 s⁻¹ and the kon was 169000 M⁻¹ s⁻¹.
